Test results taken from patent US20240269094A1, “Treatment of canine dermatitis and skin irritation” (priority 2023, published 2024).

Protein sequences, listed by entry. Tags and fused reporters are not part of them.
UniProt Q8R4D5, whole entry: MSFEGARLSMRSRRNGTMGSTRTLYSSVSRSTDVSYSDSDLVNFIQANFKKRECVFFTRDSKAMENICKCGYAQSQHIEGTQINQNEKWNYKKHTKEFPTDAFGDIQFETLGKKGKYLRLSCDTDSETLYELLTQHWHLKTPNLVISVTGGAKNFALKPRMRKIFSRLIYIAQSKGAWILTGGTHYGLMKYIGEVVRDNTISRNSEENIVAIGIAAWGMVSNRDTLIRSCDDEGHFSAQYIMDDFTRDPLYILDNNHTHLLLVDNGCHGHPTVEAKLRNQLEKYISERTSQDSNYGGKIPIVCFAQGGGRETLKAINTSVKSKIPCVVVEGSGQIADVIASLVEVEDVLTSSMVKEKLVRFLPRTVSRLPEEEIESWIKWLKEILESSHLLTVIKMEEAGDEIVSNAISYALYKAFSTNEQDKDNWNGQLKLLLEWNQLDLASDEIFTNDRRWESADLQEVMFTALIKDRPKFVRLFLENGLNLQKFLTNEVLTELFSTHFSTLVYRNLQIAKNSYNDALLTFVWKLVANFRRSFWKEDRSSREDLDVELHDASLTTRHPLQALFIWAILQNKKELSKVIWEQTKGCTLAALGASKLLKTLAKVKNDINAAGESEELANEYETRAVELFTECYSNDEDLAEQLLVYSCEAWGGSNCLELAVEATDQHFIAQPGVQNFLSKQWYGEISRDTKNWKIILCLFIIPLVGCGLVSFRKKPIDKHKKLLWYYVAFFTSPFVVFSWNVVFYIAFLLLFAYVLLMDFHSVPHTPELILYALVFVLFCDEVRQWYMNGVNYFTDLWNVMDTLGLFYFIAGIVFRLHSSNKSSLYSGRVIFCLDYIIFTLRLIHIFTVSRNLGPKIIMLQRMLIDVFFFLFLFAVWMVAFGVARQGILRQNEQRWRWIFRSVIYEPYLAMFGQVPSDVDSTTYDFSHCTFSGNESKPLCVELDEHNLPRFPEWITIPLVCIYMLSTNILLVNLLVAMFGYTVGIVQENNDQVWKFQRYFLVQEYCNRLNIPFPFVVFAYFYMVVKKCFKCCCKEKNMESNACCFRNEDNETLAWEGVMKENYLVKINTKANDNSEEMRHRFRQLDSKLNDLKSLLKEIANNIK

Legend:
[1] = target: TRPM8 (UniProt Q8R4D5); conditions: Ref. 3 (Bodding et al., 2007); cited from earlier work
[2] = Solubility in formulation solvents; conditions: 1,2-propanediol solvent, room temperature

- solubility [2]: not as soluble as FEMA 4557
SMILES: CC1CCC(C(C)C)C(C(=O)OCC(O)CO)C1 (centres unmarked)
- EC50 [1]: 5.6 µM
